Measurements as given in patent US20060148016A1.

Tests used:
[1] = biological target: streptavidin (Perkin Elmer Life Sciences; also as streptavidin-coated 96 well plates, Innotrac Diagnostics) (UniProt P22629); assay: multiwell plate assay (Example 4): Eu-loaded BCCP-ferritin particles on streptavidin-coated wells, europium inside ferritin detected; control with 0.001 mM soluble biotin
[2] = biological target: streptavidin (Perkin Elmer Life Sciences; also as streptavidin-coated 96 well plates, Innotrac Diagnostics) (UniProt P22629); assay: multiwell plate assay (Example 4) with Eu-labelled streptavidin as label; reference is ferritin particles without binding molecule

Ferritin based particles expressing BCCP on their surface (BCCP-Human ferritin light chain fusion protein, plasmid pBccpHFI) (from UniProt P0ABD8 70-156; P02792 2-175)
fold signal without biotin as compared to control with excess soluble biotin [1]: 163 fold | fold signal as compared to particles produced with pET-26(+)rHuLFt [2]: 326 fold
